Test results as given in ChEMBL document CHEMBL4028917, “(+)-Methyl (1R,2S)-2-{[4-(4-Chlorophenyl)-4-hydroxypiperidin-1-yl]methyl}-1-phenylcyclopropanecarboxylate [(+)-MR200] Derivatives as Potent and Selective Sigma Receptor Ligands: Stereochemistry and Pharmacological Properties” (J Med Chem, 2018).

Species on record: Cavia porcellus
Experiment: Selectivity index, ratio of Ki for sigma2 receptor in guinea pig brain membrane […]
Assay type: cell membranes

## COC(=O)C1(c2ccccc2)CC1CN1CCC(O)(c2ccc(Cl)cc2)CC1 (racemic)
  Ratio Ki: 4.2

## COC(=O)C1(c2ccccc2)CC1CN1CCC(O)(c2ccc(Cl)cc2)CC1 (single isomer, unassigned; (-))
  Ratio Ki: 4.2
